Target: E3 ubiquitin-protein ligase Mdm2 (Homo sapiens, UniProt Q00987)
Test: Inhibition of Mdm2 -p53 protein interaction by ELISA

The chains behind the UniProt entries cited, without tags or fusion partners.
UniProt Q00987, whole entry: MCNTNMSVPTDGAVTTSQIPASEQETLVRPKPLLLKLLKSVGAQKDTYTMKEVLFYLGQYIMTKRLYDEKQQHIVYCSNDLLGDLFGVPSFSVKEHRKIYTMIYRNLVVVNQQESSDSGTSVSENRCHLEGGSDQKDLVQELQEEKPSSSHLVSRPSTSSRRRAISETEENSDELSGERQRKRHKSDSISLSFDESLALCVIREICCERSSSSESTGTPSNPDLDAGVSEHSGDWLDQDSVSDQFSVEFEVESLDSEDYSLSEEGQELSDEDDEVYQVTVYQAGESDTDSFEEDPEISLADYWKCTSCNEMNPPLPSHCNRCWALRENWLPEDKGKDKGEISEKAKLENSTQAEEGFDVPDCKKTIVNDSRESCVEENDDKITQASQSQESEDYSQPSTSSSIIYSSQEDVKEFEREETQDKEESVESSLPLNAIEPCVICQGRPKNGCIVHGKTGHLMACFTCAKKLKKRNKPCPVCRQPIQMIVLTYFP

O=C1c2ccccc2C(O[C@H]2CC[C@H](O)CC2)(c2ccc(Cl)cc2)N1Cc1ccc([N+](=O)[O-])cc1 (mixture of isomers)
IC50: 0.39 µM

From ChEMBL document CHEMBL1687910, “Isoindolinone inhibitors of the murine double minute 2 (MDM2)-p53 protein-protein interaction: structure-activity studies leading to improved potency” (J Med Chem, 2011)
